Results as given in patent US20240139185A1, “COMPOUNDS THAT PARTICIPATE IN COOPERATIVE BINDING AND USES THEREOF” (Revolution Medicines, Inc., priority 2018, published 2024).

Experiments:
pERK in H358 cells = experiment: pERK inhibition in H358 cells; conditions: read-out: Cellular pERK inhibition, 4 hours treatment
Method in brief: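 Human lung cancer H358 cells in RPMI/10% FBS were exposed to compound or DMSO for 4 h. Fixed and permeabilized cells were stained overnight at 4 C with anti-phospho-ERK1/2 (Thr202/Tyr204). Near-infrared imaging read the pERK signal at 800 nm, with DRAQ5 at 700 nm.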

[1] = biological target: BRAF-GTP-KRAS-G12C complex (Homo sapiens, UniProt P01116+P62937, G12C); experiment: KRAS-BRAF complex disruption through competition with CYPA-compound by TR-FRET; conditions: read-out: BRAF-GTP-KRAS-G12C Disruption; biochemical BRAF-KRAS G12C-GTP disruption assay EC50, with CYPA
Method in brief: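 His6-KRAS G12C-GTP (1-169, 50 nM) with tagless CypA (1-165, 500 nM) was incubated with compound for 3 h at room temperature in pH 7.3 Hepes/NaCl/MgCl2 buffer containing GST-BRAF RBD. Anti-His Eu (10 nM) and anti-GST APC (50 nM) were then added for 1.5 h, and the 665/615 nm TR-FRET ratio was read. EC50 from 4-parameter fit; for specificity, wild-type KRAS replaced G12C, and CypA was omitted to test presenter dependence.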

cyclophilin A (CYPA) = cyclophilin A (CYPA) (Homo sapiens, UniProt P62937); experiment: CYPA-compound binary complex formation by SPR; conditions: read-out: CYPA Binding Affinity
Method in brief: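 CypA-Avi captured on a Biotin CAPture chip (4 μg/ml), reference flow cell subtracted. Compounds injected as 10-point 2-fold dilutions from 50 μM in HBS-P+ pH7.4 with 2% DMSO; 60 s association and 60 s dissociation, solvent-corrected. Affinity obtained by steady-state fitting.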

In the case of `CC#Cc1nn2c3cc(ccc13)-c1cc(O)cc(c1)C[C@H](NC(=O)[C@H](C(C)C)N(C)C(=O)C1CN(C(=O)CCl)C1)C(=O)N1CCC[C@H](N1)C(=O)OC[C@@H](C)C2`, the IC50 (pERK in H358 cells) is reported as 1 to 10 µM, the EC50 [1] is reported as < 0.5 µM and the Kd (cyclophilin A (CYPA)) is reported as 5 to 15 µM.

In the case of `C=CC(=O)N1CC[C@H](C(=O)N(C)[C@H](C(=O)N[C@H]2Cc3cc(O)cc(c3)-c3ccc4c(C(C)(C#N)C5CCOC5)cn(c4c3)CC(C)(C)COC(=O)[C@@H]3CCCN(N3)C2=O)C(C)C)C1` (stereo partly drawn), the IC50 (pERK in H358 cells) is reported as 1 to 10 µM, the EC50 [1] is reported as 0.5 to 5 µM and the Kd (cyclophilin A (CYPA)) is reported as 5 to 15 µM.

`CN(C(=O)C1CN(C(=O)CCl)C1)[C@@H](CC1CCC1)C(=O)N[C@H]1Cc2cc(O)cc(c2)-c2ccc3c(C(C)(C)C#N)cn(c3c2)CC(C)(C)COC(=O)[C@@H]2CCCN(N2)C1=O` was tested, and the IC50 (pERK in H358 cells) was > 10 µM, the EC50 [1] was 0.5 to 5 µM and the Kd (cyclophilin A (CYPA)) was > 15 µM.

In the case of `C=CC(=O)N1CC[C@H](C(=O)N(C)[C@H](C(=O)N[C@H]2Cc3cc(O)cc(c3)-c3ccc4c(c3)N(CC(C)(C)COC(=O)[C@@H]3CCCN(N3)C2=O)CC4(C)COC(=O)N(C)C)C(C)C)C1` (stereo partly drawn), the IC50 (pERK in H358 cells) is reported as > 10 µM, the EC50 [1] is reported as > 5 µM and the Kd (cyclophilin A (CYPA)) is reported as > 15 µM.

With `CC#CC(=O)N1CC[C@@H](C(=O)N(C)[C@H](C(=O)N[C@H]2Cc3cc(O)cc(c3)-c3ccc4nc(C)n(c4c3)CC(C)(C)COC(=O)[C@@H]3CCCN(N3)C2=O)C(C)C)C1` the IC50 (pERK in H358 cells) was > 10 µM, the EC50 [1] was > 5 µM and the Kd (cyclophilin A (CYPA)) was > 15 µM.

For `CC(C)[C@@H](C(=O)N[C@H]1Cc2cc(O)cc(c2)-c2ccc3c(C(C)(C)C#N)cn(c3c2)CC(C)(C)COC(=O)[C@@H]2CCCN(N2)C1=O)N(C)C(=O)[C@@H]1CCN(C(=O)[C@H](C)Cl)C1`, the IC50 (pERK in H358 cells) was 1 to 10 µM, the EC50 [1] was 0.5 to 5 µM and the Kd (cyclophilin A (CYPA)) was > 15 µM.

`C=CC(=O)N1CCC(C(=O)N(C)[C@H](C(=O)N[C@H]2Cc3cc(cc(C(F)F)c3)-c3ccc4c(C#N)cn(c4c3)CC(C)COC(=O)[C@@H]3CCCN(N3)C2=O)C(C)C)C1` (stereo partly drawn) was tested, and the IC50 (pERK in H358 cells) was > 10 µM, the EC50 [1] was > 5 µM and the Kd (cyclophilin A (CYPA)) was < 5 µM.

With `CC(C)[C@@H](C(=O)N[C@H]1Cc2cc(O)cc(c2)-c2ccc3c(c2)n(c(=O)n3C2CCCCC2)C[C@H](C)COC(=O)[C@@H]2CCCN(N2)C1=O)N(C)C(=O)C1CN(C(=O)CCl)C1` the IC50 (pERK in H358 cells) was 1 to 10 µM, the EC50 [1] was < 0.5 µM and the Kd (cyclophilin A (CYPA)) was > 15 µM.

In the case of `CC#CC(=O)N1CCC(C(=O)N(C)[C@H](C(=O)N[C@H]2Cc3cc(O)cc(c3)-c3ccc4nc(C)n(c4c3)CC(C)(C)COC(=O)[C@@H]3CCCN(N3)C2=O)C(C)C)C1` (stereo partly drawn), the IC50 (pERK in H358 cells) is reported as > 10 µM, the EC50 [1] is reported as > 5 µM and the Kd (cyclophilin A (CYPA)) is reported as 5 to 15 µM.

`CC[C@H](C)[C@@H](C(=O)N[C@H]1Cc2cc(O)cc(c2)-c2ccc3c(C(C)(C)C#N)cn(c3c2)CC(C)(C)COC(=O)[C@@H]2CCCN(N2)C1=O)N(C)C(=O)C1CN(C(=O)CCl)C1` was tested, and the IC50 (pERK in H358 cells) was < 1 µM, the EC50 [1] was < 0.5 µM and the Kd (cyclophilin A (CYPA)) was 5 to 15 µM.

In the case of `CC(C)[C@@H](C(=O)N[C@H]1Cc2cc(O)cc(c2)-c2ccc3c(-c4cccc5scnc45)cn(c3c2)CC(C)(C)COC(=O)[C@@H]2CCCN(N2)C1=O)N(C)C(=O)C1CN(C(=O)[C@@H](C)Cl)C1`, the IC50 (pERK in H358 cells) is reported as > 10 µM, the EC50 [1] is reported as > 5 µM and the Kd (cyclophilin A (CYPA)) is reported as 5 to 15 µM.

With `C=CC(=O)N1CCC[C@@H](C(=O)N(C)[C@H](C(=O)N[C@H]2Cc3cc(O)cc(c3)-c3ccc4c(C(C)(C)C#N)cn(c4c3)CC(C)(C)COC(=O)[C@@H]3CCCN(N3)C2=O)C(C)C)C1` the IC50 (pERK in H358 cells) was > 10 µM, the EC50 [1] was > 5 µM and the Kd (cyclophilin A (CYPA)) was 5 to 15 µM.

For `CC1COC(=O)[C@@H]2CCCN(N2)C(=O)[C@@H](NC(=O)[C@H](C(C)C)N(C)C(=O)C2CN(C(=O)[C@@H](C)Cl)C2)Cc2cc(O)cc(c2)-c2ccc3c(c2)c(cn3CC2CCOCC2)C1` (stereo partly drawn), the IC50 (pERK in H358 cells) was > 10 µM, the EC50 [1] was > 5 µM and the Kd (cyclophilin A (CYPA)) was < 5 µM.

`COC1COC(=O)[C@@H]2CCCN(N2)C(=O)[C@@H](NC(=O)[C@H](C(C)C)N(C)C(=O)C2CN(C(=O)CCl)C2)Cc2cc(O)cc(c2)-c2ccc3nc(C)n(c3c2)C1` (stereo partly drawn) was tested, and the IC50 (pERK in H358 cells) was > 10 µM, the EC50 [1] was 0.5 to 5 µM and the Kd (cyclophilin A (CYPA)) was < 5 µM.

With `C=CC(=O)N[C@@H]1CCN([C@H](C(=O)N[C@H]2Cc3cc(O)cc(c3)-c3ccc4c(C(C)(C)C#N)cn(c4c3)C[C@H](C)COC(=O)[C@@H]3CCCN(N3)C2=O)C(C)C)C1=O` the IC50 (pERK in H358 cells) was > 10 µM, the EC50 [1] was > 5 µM and the Kd (cyclophilin A (CYPA)) was < 5 µM.

For `CC(C)[C@@H](C(=O)N[C@H]1Cc2cc(cc(C(F)F)c2)-c2ccc3c(C#N)cn(c3c2)C[C@H](C)COC(=O)[C@@H]2CCCN(N2)C1=O)N(C)C(=O)C1CN(C(=O)CCl)C1`, the IC50 (pERK in H358 cells) was > 10 µM, the EC50 [1] was 0.5 to 5 µM and the Kd (cyclophilin A (CYPA)) was > 15 µM.

`Cc1nc2ccc3cc2n1CC(C)(C)COC(=O)[C@@H]1CCCN(N1)C(=O)[C@@H](NC(=O)[C@H](C(C)C)N(C)C(=O)C1CN(C(=O)CCl)C1)Cc1cc(O)cc-3c1` was tested, and the IC50 (pERK in H358 cells) was > 10 µM, the EC50 [1] was < 0.5 µM and the Kd (cyclophilin A (CYPA)) was 5 to 15 µM.
